Experimental data as given in PubChem BioAssay AID1347041 (National Center for Advancing Translational Sciences (NCATS), 2019).
“And” between values parts separate entries of the source, which are not always exact repeats. Equal values may be shown once. This is a selection; strong and weak results do not stand in their true shares. Some of these compounds have results that are not shown, active ones among them. The source made the active and inactive calls. No stated cut-off is given here; in the data, active means activity change below about -30%; inconclusive means mostly about -25% to -30%; inactive means weaker than that.

Molecular target: L-lactate dehydrogenase A chain (Homo sapiens) (UniProt P00338)
Assay: qHTS assay for inhibitors of human lactate dehydrogenase;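 further: values are at about 110 or 230 µM; plate controls were DMSO wells for no effect and wells without enzyme for full effect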
Conditions: purified LDHA, NADH/diaphorase-resazurin fluorescence; hits give low values
Description: LDH is a key glycolytic enzyme that catalyzes the final step in the glycolytic pathway, reducing pyruvate to lactate and regenerating NAD+ equivalents necessary for continued glycolysis. LDHA has been linked to the carcinogenesis and malignancy in numerous forms of cancers and many other diseases. Consequently, both pharma and academia have invested in significant research efforts to identify small molecule therapeutics. Such attempts have been stalled or abandoned due to limited success in discovering potent and drug-like inhibitors that can be utilized to validate LDHA in vivo as a drug target, a necessary step toward advancing such a molecule towards the clinic Towards this goal we designed and performed a quantitative high-throughput screening (qHTS) campaign to discover novel compounds that are potent inhibitors of LDHA enzyme activity and cancer cell line growth.
The assay was optimized to 1536-well plates. Briefly, 3 µL of human lactate dehydrogenase 5 (#A38558H, Meridian Life Science, Inc., Memphis, TN) in LDH assay buffer (200 mM Tris HCl pH 7.4, 100 microM EDTA and 0.01% Tween-20) was added to a black solid bottom 1536-well assay plate (Greiner Bio-One) using a BioRAPTR FRD dispenser (Beckman Coulter, Brea, CA). A 1536-well pintool dispenser outfitted with 20 nL pins (Wako Automation, San Diego, CA) was used to transfer 23 nL of DMSO-solubilized compound (both library and vehicle controls) to each 1536-well assay plate. Following compound transfer, 1 µL of substrate solution containing NADH and sodium pyruvate (Sigma-Aldrich, St. Louis, MO) in LDH assay buffer was dispensed via BioRAPTR FRD to initiate the reaction. Final concentrations in the 4 microL reaction volume were 2 nM LDHA enzyme, 0.06 mM NADH and 0.2 mM sodium pyruvate. Following a 5 minute incubation period at room temperature, 1 µL of detection reagent (C. kluyveri diaphorase (Sigma-Aldrich) and resazurin sodium salt (Sigma-Aldrich) in LDH assay buffer) was added to a total volume of 5 µL. Final concentrations of detection reagents were 0.133 mg/mL diaphorase and 37 µM resazurin. Plates were immediately transferred to a ViewLux microplate imager (PerkinElmer, Waltham, MA), and any resulting resorufin fluorescence was measured (ex540, em590 nm) at 0 and 20 minutes. Fluorescence was normalized using enzyme-free and DMSO-treated control wells on each plate.

**Q.** With `CC(CCN(CCCl)CCCl)c1ccccc1` (stereo not drawn) as the compound, how does the activity change read?
**A.** Its activity change is inactive: -9.51%.

**Q.** Which activity change does the source give for `O=C(CCC1CCCCC1)N1CCN(C/C=C/c2ccccc2)CC1` here?
**A.** Its activity change is inactive: 10.9%.

**Q.** Which activity change does the source give for `O=C(NCC1(N2CCCCC2)CCCCC1)c1cc([N+](=O)[O-])ccc1Cl` here?
**A.** Its activity change is inactive: -6.85%.

**Q.** With `CN1[C@@H]2CC[C@H]1CC(OC(=O)C(O)(c1ccccc1)c1ccccc1)C2` (stereo partly drawn) as the compound, how does the activity change read?
**A.** The activity change was inactive: -0.316%.

**Q.** For `COc1cc(SC)ccc1C(=O)NCC1(N(C)C)CCCCC1`, which activity change is on record?
**A.** The activity change was inactive: -6.39%.

**Q.** Which activity change does the source give for `CCN(CC)CC(C)C(C)OC(=O)C(O)(c1ccccc1)c1ccccc1` (stereo not drawn) here?
**A.** The activity change was inactive: -0.58%.

**Q.** For `CN(C)C1(CNC(=O)c2cccc(Cl)c2)CCCCC1`, which activity change is on record?
**A.** The activity change was inactive: -2.34%.

**Q.** How did the activity change turn out when `CC(C)N1C(=O)CC2(CCN(CCOC(=O)C(O)(c3ccccc3)c3ccccc3)CC2)C1=O` was run?
**A.** The activity change was inactive: -0.962%.

**Q.** With `Cc1ccc(C(=O)NCC2(N3CCCCC3)CCCCC2)cc1` as the compound, how does the activity change read?
**A.** The activity change was inactive: -4.81%.

**Q.** With `CN(C)C1(CNC(=O)c2ccccc2F)CCCCC1` as the compound, how does the activity change read?
**A.** The activity change was inactive: 3.83%.

**Q.** With `CN(C)c1ccc(C(=O)NCC2(N(C)C)CCCCC2)cc1` as the compound, how does the activity change read?
**A.** The activity change was inactive: -4.14%.

**Q.** Which activity change does the source give for `CN(C)C1CCCC1OC(=O)C(O)(c1ccccc1)c1ccccc1` (stereo not drawn) here?
**A.** The activity change was inactive: -5.64%.

**Q.** With `Cc1ccccc1C(=O)NCC1(N2CCCCC2)CCCCC1` as the compound, how does the activity change read?
**A.** Its activity change is inactive: -4.08%.

**Q.** How did the activity change turn out when `CN(C)C1(CNC(=O)c2ccccc2[N+](=O)[O-])CCCCC1` was run?
**A.** Its activity change is inactive: -10.5%.

**Q.** How did the activity change turn out when `CCCCOc1ccccc1C(=O)NCC1(N(C)C)CCCCC1` was run?
**A.** The activity change was inactive: 5.51%.

**Q.** How did the activity change turn out when `CCOc1ccccc1C(=O)NCC1(N(C)C)CCCCC1` was run?
**A.** The activity change was inactive: -4.18%.

**Q.** `O=C(NCC1(N2CCCCC2)CCCCC1)c1cc(F)c(F)cc1Cl` was tested. Which activity change did it give?
**A.** The activity change was inactive: -6.35%.

**Q.** `CN(C)CCOC(=O)C(O)(c1ccccc1)C1CCCCC1` (stereo not drawn) was tested. Which activity change did it give?
**A.** Its activity change is inactive: 3.02%.

**Q.** How did the activity change turn out when `C=CCN1CCN(CCOC(=O)C(O)(c2ccccc2)c2ccccc2)CC1` was run?
**A.** The activity change was inactive: 0.474%.

**Q.** `CN(C)C1(CNC(=O)c2cccs2)CCCCC1` was tested. Which activity change did it give?
**A.** The activity change was inactive: 9.66%.

**Q.** For `CCOc1cccc(C(=O)NCC2(N(C)C)CCCCC2)c1`, which activity change is on record?
**A.** Its activity change is inactive: -3.76%.

**Q.** With `COc1ccc(C(=O)NCC2(N(C)C)CCCCC2)cc1` as the compound, how does the activity change read?
**A.** Its activity change is inactive: -5.11%.

**Q.** For `O=C(NCC1(N2CCCCC2)CCCCC1)c1cccc(Br)c1`, which activity change is on record?
**A.** Its activity change is inactive: -6.42%.

**Q.** With `O=C(NCC1(N2CCOCC2)CCCCC1)c1cc(=O)c2ccccc2o1` as the compound, how does the activity change read?
**A.** The activity change was inactive: -2.58%.

**Q.** With `CCN1CCCC(OC(=O)C2(O)c3ccccc3C=Cc3ccccc32)C1` (stereo not drawn) as the compound, how does the activity change read?
**A.** The activity change was inactive: -7.46%.

**Q.** Which activity change does the source give for `Cc1cc(C(=O)NCC2(N3CCCCC3)CCCCC2)ccc1[N+](=O)[O-]` here?
**A.** Its activity change is inactive: -5.06%.

**Q.** Which activity change does the source give for `O=C(CBr)c1ccc(Cl)cc1` here?
**A.** Its activity change is inactive: 0.146%.

**Q.** `CN(C)C1(CNC(=O)c2ccc(Br)cc2)CCCCC1` was tested. Which activity change did it give?
**A.** The activity change was inactive: -13.7%.

**Q.** For `COc1cc(C(=O)NCC2(N(C)C)CCCCC2)c([N+](=O)[O-])cc1OC`, which activity change is on record?
**A.** The activity change was inactive: 1.02%.

**Q.** With `COc1ccc(Cl)cc1C(=O)NCC1(N(C)C)CCCCC1` as the compound, how does the activity change read?
**A.** The activity change was inactive: -2.88%.

**Q.** Which activity change does the source give for `COc1cccc(C(=O)NCC2(N3CCCCC3)CCCCC2)c1` here?
**A.** Its activity change is inactive: -5.91%.

**Q.** With `COc1ccc(C(=O)NCC2(N(C)C)CCCCC2)cc1Cl` as the compound, how does the activity change read?
**A.** Its activity change is inactive: -4.09%.

**Q.** Which activity change does the source give for `O=C(NCC1(N2CCCCC2)CCCCC1)c1cccc(Cl)c1` here?
**A.** Its activity change is inactive: -3.74%.

**Q.** `COc1cccc(C(=O)NCC2(N3CCOCC3)CCCCC2)c1` was tested. Which activity change did it give?
**A.** Its activity change is inactive: -2.74%.

**Q.** Which activity change does the source give for `O=C(OC1CN2CCC1CC2)C(CO)(c1ccccc1)c1ccccc1` (stereo not drawn) here?
**A.** The activity change was inactive: -2.12%.

**Q.** For `CC(C)COc1ccc(C(=O)NCC2(N(C)C)CCCCC2)cc1`, which activity change is on record?
**A.** The activity change was inactive: -2.3%.

**Q.** `C=C(C)C#CC(O)(C(=O)OC1CCN(C)CC1)c1ccccc1` (stereo not drawn) was tested. Which activity change did it give?
**A.** Its activity change is inactive: 0.843%.

**Q.** Which activity change does the source give for `COc1ccc(Br)c(C(=O)NCC2(N3CCCCC3)CCCCC2)c1` here?
**A.** The activity change was inactive: -4.66%.

**Q.** How did the activity change turn out when `Cc1cccc(C(=O)NCC2(N(C)C)CCCCC2)c1` was run?
**A.** The activity change was inactive: -7.95%.

**Q.** Which activity change does the source give for `COc1cc(C(=O)NCC2(N(C)C)CCCCC2)cc(OC)c1OC` here?
**A.** Its activity change is inactive: -1.57%.

**Q.** How did the activity change turn out when `O=C(OCCN1CCCC1)C(O)(c1ccccc1)c1ccccc1` was run?
**A.** The activity change was inactive: -5.45%.

**Q.** For `CC(C)Oc1ccc(C(=O)NCC2(N(C)C)CCCCC2)cc1`, which activity change is on record?
**A.** The activity change was inactive: -13.1% and inactive: -7.02%.

**Q.** For `CN(C)c1cccc(C(=O)NCC2(N(C)C)CCCCC2)c1`, which activity change is on record?
**A.** Its activity change is inactive: 4.74%.
